Results on one substance are retold here after US20110077581A1, “TARGETED CELLULAR DELIVERY OF NANOPARTICLES” (GEORGIA TECH RESEARCH CORPORATION, priority 2009, published 2011).

Data set [1] has as its system ERα(−) MDA-MB-231 breast cancer cells. Briefly: Cell viability assay (MTT or XTT) in ERα(−) MDA-MB-231 breast cancer cells. The format is cell-based, human. The settings on record: MDA-MB-231, highest concentrations and incubation times used. Here is the method: Cell culture and nanoparticle incubation. ERα(−) MDA-MB-231 and ERα(+) MCF-7 breast cancer cells (human adenocarcinoma, ATCC) or ERα(+) human squamous cell carcinoma (43-45) (HSC-3) cells were cultured to 10^5 cells/cm^2 in DMEM growth media supplanted with 10% v/v heat-inactivated fetal bovine serum, penicillin (100 U/ml), streptomycin (100 μg/ml), 4.5 g/L glucose, […], without L-glutamine and phenol red at 37° C. in a 5% CO2 humidified atmosphere. Growth media was removed from the cell cultures and replaced with identical media containing gold nanoparticle conjugates heated to 37° C. at time=0 h.
Cell viability assay. Following incubation, growth media containing gold nanoparticle conjugates was removed and cells were rinsed twice in sterile Dulbecco's phosphate buffered saline (DPBS). Mitochondrial dehydrogenase activity was assessed by MTT or XTT spectrophotometric assay (Sigma TOX1, TOX2) following the manufacturer's instructions. The assay was performed using a SpectraMax Plus 384 microplate reader and statistical analysis was performed by t-test.

For another data set, the system named is MCF-7 cells. As to the kind of experiment: In vitro laser photothermal therapy of MCF-7 cells. Particulars: MCF-7, 0.5 μM, 24 h.

For Thiol-pegylated tamoxifen [TAM-PEG-SH], in data set [1], the cytotoxic effects result is recorded as “cytotoxic effects were not observed”. In addition, the “in vitro cytotoxicity in the absence of laser treatment” value in the data set on MCF-7 cells is recorded as “no appreciable in vitro cytotoxicity”.
